## Yeast mating assay 1: variants of the scFv Ab-14

Target peptide (SARS-CoV-2 spike, HR2 region): PDVDLGDISGINAS

Each scFv is VH, the linker GGGGSGGGGSGGGGS, VL, as in the parent Ab-14, and differs from it in the CDRs of the heavy chain only.
VH: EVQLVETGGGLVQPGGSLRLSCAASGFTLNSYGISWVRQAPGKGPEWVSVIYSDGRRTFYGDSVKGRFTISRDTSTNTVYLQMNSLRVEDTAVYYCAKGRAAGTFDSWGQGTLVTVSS
VL: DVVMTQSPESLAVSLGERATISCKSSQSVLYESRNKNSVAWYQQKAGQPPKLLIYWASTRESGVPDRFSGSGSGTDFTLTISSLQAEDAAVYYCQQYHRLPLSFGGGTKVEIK

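Library AAYL49 holds single substitutions and randomly drawn double and triple substitutions in the CDRs. Affinity was read by AlphaSeq, a pooled yeast mating assay with surface-displayed partners. The frequency of each diploid, read from paired DNA barcodes, reflects how well the two displayed proteins bind. The ratio of observed to expected reads was calibrated, replicate by replicate, on BCL2-family standards whose Kd was known from biolayer interferometry. The assay was run in three technical replicates.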

Each variant is given by its three heavy chain CDRs, as the data file delimits them; those of the parent are GFTLNSYGIS, VIYSDGRRTFYGDSVK, GRAAGTFDS. Values are log10 of the apparent Kd in nM; lower means stronger binding. "nd" marks a missing value. The strain was present, yet no cells mated with the target were sequenced in that replicate, which points to weak or no binding. Background: pairings of library AAYL49 with three empty control strains gave a value in 15% of cases (median 4.06, 5th percentile 2.83). Values in that range, when seen in few replicates, are hard to tell from nonspecific mating. Also given: how often the same scFv was detected with the empty control strains, with their mean in brackets. In this assay the parent's reference entry averaged 0.65; its copy inside this library read 4.11 (one replicate of three).

CDR-H1	CDR-H2	CDR-H3	log10 Kd, replicates	empty controls
GFTLNSGGIS	VIYSDGRRTFYGDSVK	YRAAGVFDS	3.40 / nd / nd	2/9 (3.43)
GFTLDSYYIS	VIYSDGLRTFYGDSVK	GRAAGTFDS	3.10 / nd / nd	1/9 (4.78)
GFTLNSYGMS	VIYSDGRRTFYQDSLK	GRAAGTFDS	nd / nd / nd	5/9 (3.95)
GFTYNSCGIS	VIYSDGRRTFYGDSVK	GRAAGTFIS	nd / nd / nd	0/9
GFYKNSYGIS	VIYSDGRRTFYGDSVK	GRAAGQFDS	nd / 3.31 / nd	0/9
GFTLNWYGDS	VIYSDGRRTFYGDSVK	VRAAGTFDS	nd / 3.45 / nd	3/9 (4.44)
GFTLNSYGIS	MIYSDGRRTSYGDSVK	GRAAGWFDS	nd / nd / nd	0/9
DFTLNSYGIS	VIYSDGRRTFYGDSVK	GRAATTFDS	nd / nd / nd	0/9
GFTENSYGIS	VIYSHGRRTFYPDSVK	GRAAGTFDS	nd / nd / nd	3/9 (4.58)
GFTLNSYGIS	VLYSDGRRTWYGDSVK	GRAAGTPDS	3.21 / 3.06 / 3.49	3/9 (4.12)
GFTLNSYGNS	VIYSDGRRTFYGDLVK	GRAQGTFDS	nd / nd / nd	1/9 (2.61)
GFTLNSYGIS	VIYSDIRRTFYGDGVK	GRAATTFDS	nd / nd / nd	0/9
GFTLQSYAIS	VIYSDKRRTFYGDSVK	GRAAGTFDS	nd / nd / 3.15	4/9 (3.70)
LFTLNSYGIS	VIYSDGRRTFYYDSVK	GRAAGTFDS	1.51 / 1.16 / 1.66	0/9
TFTLNSYGIS	VIYSDTRRTFYGDSVK	GRAAGTFDQ	nd / nd / nd	0/9
GFTLNSYGFS	VIYSDGRRTFYGDSVK	GEAAGTFDS	nd / nd / nd	0/9
GFTLNSYGIL	VIYSDGRRTFIRDSVK	GRAAGTFDS	nd / 2.94 / nd	0/9
GITLNSYGIS	VIYSDGRYTFYGDSLK	GRAAGTFDS	3.98 / 3.67 / nd	2/9 (3.97)
GFTLNSYGIS	VIYSDGRRCIYGDSVK	NRAAGTFDS	2.17 / 2.19 / 1.99	3/9 (4.41)
GFTLNSYEIS	VIYSDGRRTFYGRSVK	GRAAGTFDS	nd / nd / nd	1/9 (3.31)
GFTLNSYGIS	VIYSDGRRHGYGDSVK	GRAAGGFDS	nd / nd / nd	5/9 (4.48)
GFTLNSYGIS	VIYSGGSRTFYGDSVK	GRAAGTFDS	nd / nd / nd	0/9
GFTLNSYGII	VIYSDGRRTFMGDSVK	GVAAGTFDS	2.57 / nd / nd	0/9
GFTLNSYGIS	VIYSDGRRTFYGDSVK	GRRAHTFHS	nd / nd / 4.41	2/9 (3.40)
GFTLNSYGIS	VIYSIKRRTFYGDSVK	ARAAGTFDS	4.08 / nd / nd	2/9 (3.95)
GFTLNSYGQS	VIYSDGLRTFYGDSSK	GRAAGTFDS	5.12 / 3.99 / 5.16	8/9 (4.96)
GFTLNSYGIS	VIYSDGSRTFYGDQVK	GRAAGTFGS	1.12 / 1.13 / 1.35	2/9 (3.67)
GFTLNSYGIS	DIYSCGRRTFYGDSVK	GRAAGTPDS	nd / nd / nd	4/9 (4.01)
GVTLNSYGIS	PIYSDGDRTFYGDSVK	GRAAGTFDS	nd / nd / nd	0/9
GKTLNSYGIS	VIYSDGRPTFYGDSVK	GDAAGTFDS	5.05 / 4.52 / 4.97	5/9 (4.54)
GFTLNFYGIS	VIYSDCRRTFYGDSVK	GRKAGTFDS	nd / nd / nd	1/9 (3.16)
GFTLNSYGIS	VDYSDGRRTFYGDSVK	GRAAQTVDS	5.54 / 4.13 / 4.62	6/9 (4.56)
GFTLNSYGIS	FIYSNGRRTFYGKSVK	GRAAGTFDS	nd / nd / nd	1/9 (3.88)
GFTFNSYKIS	VIYSDGRRTFYGDSVL	GRAAGTFDS	nd / 2.96 / nd	0/9
GLTLNSYGIS	NIYSDGRRTFYGDAVK	GRAAGTFDS	nd / nd / nd	2/9 (4.43)

Again, the first 5 entries without any signal:

CDR-H1,CDR-H2,CDR-H3,"log10 Kd, replicates",empty controls
GFTLNSYGMS,VIYSDGRRTFYQDSLK,GRAAGTFDS,nd / nd / nd,5/9 (3.95)
GFTYNSCGIS,VIYSDGRRTFYGDSVK,GRAAGTFIS,nd / nd / nd,0/9
GFTLNSYGIS,MIYSDGRRTSYGDSVK,GRAAGWFDS,nd / nd / nd,0/9
DFTLNSYGIS,VIYSDGRRTFYGDSVK,GRAATTFDS,nd / nd / nd,0/9
GFTENSYGIS,VIYSHGRRTFYPDSVK,GRAAGTFDS,nd / nd / nd,3/9 (4.58)

Source: Engelhart et al. 2022 (doi:10.1038/s41597-022-01779-4), MIT Lincoln Laboratory and A-Alpha Bio; data file from the FLAb repository.